CAL PDZ FP-1: blocks peptide binding to human CAL PDZ domain | inhibition, % at 20 µM | 330,000 compounds, 0.02% hits | Q9HD26 | purified CAL PDZ, TMR-peptide fluorescence polarization, 1 h;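 active means highest replicate inhibition of at least 40%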;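 further: plate controls were DMSO neutral control wells for no effect and unlabeled competitor peptide control wells for full effect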
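Test system: tagged CAL PDZ domain / Buffer or medium: sodium phosphate/NaCl buffer pH 7.4 with TCEP, IgG, Thesit / Reagent: TMR-labelled reporter peptide T*-PRC34 bound in PDZ groove / Compound dosing: single point, 20 µM / Schedule: 1 h incubation at room temperature before polarization reading / Technique: fluorescence polarization (mP) / Benchmarks: unlabelled peptide, DMSO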
PglD inh: PglD (C. jejuni) enzyme inhibition. purified PglD enzyme, DTNB colorimetric CoA detection. inhibition, % at 12.5 µM. 360,000 compounds, 0.098% hits. AID 602405; in the data active means inhibition above about 16%, passing the limit was not always enough
Yeast UUG start: modulators of yeast start codon fidelity, primary screen, whole organism, S. cerevisiae, single point, plate reader | AID 602363, 2012 | S. cerevisiae UUG-firefly luciferase reporter, luminescence/redox ratio | activity score, % at 18.7 µM | hit rate 0.13% among 350,000;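 active = replicate mean at a twofold rise or more, about +100% in these data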;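 also: firefly luciferase made from a UUG start codon reports start codon fidelity; reporter light over untreated wells divided by growth signal over untreated wells; some hits fall short of that in this replicate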
ARNT-TACC3 inh: ARNT/TACC3 interaction disruption; Q9Y6A5; AlphaScreen His-ARNT PAS-B/GST-TACC3 binding, luminescence; TACC3 fragment carries E629A point mutation; inhibition, % at 9.99 µM; 390,000 compounds, 0.66% hits; AID 623870;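 active means mean inhibition of replicates at least 50% and at least half of replicates each reaching 50%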;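 further: 0% = complete ARNT plus TACC3 wells and 100% = ARNT alone without TACC3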
Vif inh: HIV Vif inhibition; inhibition, % at 7.49 µM; 340,000 compounds, 0.35% hits; HEK293T cells, Vif self-association by quenched fluorescence, imaging, 24 h; in the data active means inhibition above about 50%, passing the limit was not always enough
CAL PDZ FP-2: CAL PDZ (human) peptide binding inhibition; Q9HD26; purified CAL PDZ, TMR-peptide fluorescence polarization, 1 h; inhibition, % at 24.9 µM; 300,000 compounds, 0.92% hits;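 active means mean inhibition of at least 30% with at least half of replicates also reaching 30%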;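 further: 0% = DMSO neutral control and 100% = excess unlabeled competitor peptide PRC23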
An asterisk follows results filed as active; x = no result. In the library only some 1.6% were active in any assay of this set; here they are far more common.

nr | Structure | CAL PDZ FP-1 | PglD inh | Yeast UUG start | ARNT-TACC3 inh | Vif inh | CAL PDZ FP-2
1 | C[C@H]1CCCCO[C@H](CN(C)Cc2ccc3c(c2)OCO3)[C@@H](C)CN([C@@H](C)CO)C(=O)c2cc(NC(=O)Nc3ccc(C(F)(F)F)cc3)ccc2O1 | x | -2 | -4 | 57* | x | x
2 | C[C@@H]1CCCCO[C@H](CN(C)Cc2ccc3c(c2)OCO3)[C@H](C)CN([C@@H](C)CO)C(=O)c2cc(NC(=O)Nc3ccc(C(F)(F)F)cc3)ccc2O1 | x | -2 | 9 | 21 | x | x
3 | CCCC(=O)Nc1ccc2c(c1)C(=O)N(C)C[C@@H](OC)[C@@H](C)CN(Cc1nccs1)[C@H](C)CO2 | x | -1 | x | -3 | x | x
4 | O=C(CCN1C(=O)/C(=C/c2cccs2)SC1=S)N1CCCCC1 | -1 | -1 | 9 | -13 | 37 | 85*
5 | O=C(CCN1C(=O)/C(=C\c2ccccc2)SC1=S)N1CCCCC1 | -1 | -3 | -9 | -1 | 22 | x
6 | Cc1noc(C)c1NC(=O)Nc1ccc2c(c1)C(=O)N([C@H](C)CO)C[C@H](C)[C@@H](CN(C)S(=O)(=O)c1ccc(Cl)cc1)OCCCC[C@H](C)O2 | x | 1 | x | -5 | x | x
7 | Cc1cc(C)nc(NS(=O)(=O)c2ccc(NS(=O)(=O)c3ccsc3)cc2)n1 | x | 1 | 0 | x | 74* | x
8 | O=c1ccc(-c2nc3ccccc3n2Cc2ccc(Cl)cc2)c[nH]1 | x | -15 | -11 | 2 | 7 | 41*
9 | Cn1c(-c2ccc(=O)[nH]c2)nc2ccccc21 | 0 | x | x | x | 0 | 4
10 | CCOC(=O)c1sc(NC(=O)Nc2ccc(Cl)cc2)nc1C | 0 | -4 | -13 | -3 | -5 | 52*
11 | Cn1c2ccccc2c2nnc(SCC(=O)Nc3cccc(C(=O)O)c3)nc21 | -4 | 5 | -10 | 47* | -14 | -2
12 | Cn1c2ccc(F)cc2c2nnc(SCC(=O)Nc3cccc(O)c3)nc21 | x | -4 | 3 | 9 | -2 | 1
13 | C[C@@H]1CN([C@@H](C)CO)C(=O)Cc2cc(NC(=O)Nc3ccccc3)ccc2O[C@@H]1CN(C)C(=O)Nc1ccc(C(F)(F)F)cc1 | x | 1 | 2 | 6 | x | x
14 | COc1ncnc2c1NC(=O)CS2 | 0 | 5 | -16 | -7 | 10 | 0
15 | COc1ncnc2c1N[C@@](C)(O)c1c(F)c(F)c(F)c(F)c1S2 | -1 | -3 | -6 | 4 | 7 | 46*
16 | N#Cc1c(NCc2ccccc2)ccnc1Cl | -1 | x | x | -4 | -2 | 40*
17 | COc1ccccc1C(O)(C(=O)NN(C(=O)c1ccccc1)c1ccccc1C)c1cccs1 (stereo not drawn) | -1 | -7 | -44 | -5 | 52* | x
18 | COc1ccccc1C(O)(C(=O)NNc1ccccc1C)c1ccccc1OC | -3 | x | x | 37 | -1 | -3
19 | CCCNC(=O)[C@@H]1[C@@H](CO)[C@@H]2Cn3c(ccc(-c4ccc(C(=O)N(C)C)cc4)c3=O)[C@@H]2N1CCC | x | 4 | 18 | -8 | x | x
20 | CC12C(=O)N(Cc3ccco3)C(=O)C1C1c3ccccc3C2c2ccccc21 (stereo not drawn) | x | 6 | 7 | -1 | -4 | 103*
21 | O=C1C2C(C(=O)N1Cc1ccco1)C1C=CC2C12CC2 (stereo not drawn) | 0 | x | -17 | -12 | -2 | x
22 | CCC(=O)N1C[C@H](C)[C@H](OC)CN(C)C(=O)c2ccc(NC(=O)c3cnccn3)cc2OC[C@H]1C | x | 3 | 5 | -5 | x | x
23 | COC(=O)c1c(NC(=O)Cc2cccs2)sc2c1CCC(C)C2 (stereo not drawn) | -1 | 1 | -16 | -7 | 7 | -1
24 | COC(=O)c1c(NC(=O)CN(C)CC(=O)Nc2ccc(C)cc2)sc2c1CCC(C)C2 (stereo not drawn) | 0 | -1 | -7 | -14 | -7 | 69*
25 | COc1ccc(OC)c2sc(N3CCc4ccccc4C3)nc12 | -1 | x | x | -1 | 22 | 33*
26 | COc1ccccc1C#Cc1ccc2c(c1)O[C@H](CN(C)Cc1ccccc1)[C@@H](C)CN([C@H](C)CO)S2(=O)=O | x | 4 | 13 | -2 | x | x
27 | CC1=NN(c2ccc([N+](=O)[O-])cc2)C(=O)C1 | -1 | -1 | -18 | 45* | 18 | x
28 | CC1=NN(c2ccc(C(=O)O)c(N)c2)C(=O)C1 | 1 | x | x | 47* | 3 | 16
29 | CC1=NN(c2ccc([N+](=O)[O-])cc2)C(=O)/C1=C\N(C)C | -3 | x | x | 5 | -1 | -3
30 | C[C@H]1CN([C@@H](C)CO)C(=O)Cc2cc(NS(C)(=O)=O)ccc2O[C@H]1CN(C)S(C)(=O)=O | x | 3 | -8 | 0 | x | x
31 | Cc1cccc(/C(N)=N/OC(=O)c2cccs2)c1 | -2 | 3 | -22 | 6 | x | 53*
32 | CCCNC(=O)CSc1nc(COc2ccccc2)nc2ccccc12 | -2 | x | x | 1 | 4 | -1
33 | O=C(CSc1ncnc2ccccc12)NCCCO | -1 | x | x | 17 | -8 | 3
34 | O=C(CSc1ncnc2ccccc12)NCCc1ccccc1 | 11 | -1 | -20 | -2 | -2 | 45*
35 | CCCCNC(=O)CSc1nc(CCC)nc2ccccc12 | 0 | x | x | -1 | x | 30*
36 | O=C(C[C@H]1CC[C@H]2NC[C@@H](O)COC[C@@H]2O1)Nc1ccccc1 | x | 9 | -1 | 14 | x | x

37: COc1ccccc1OCCCC(=O)NCc1ccco1
38: COc1cc(NC(=O)NCc2ccco2)ccc1-c1ccc(NC(=O)NCc2ccco2)cc1OC
39: COc1ccccc1OCC(=O)NCc1cccs1
40: CO[C@@H]1CC[C@H]2CCOc3ccc(C#N)cc3C(=O)N(C)C[C@H](C)C(=O)N(C)C[C@H]1O2
41: CN1C(=O)c2cc(NC(=O)C3CC3)ccc2OC[C@@H]2O[C@H](CC(=O)NCCN3CCCC3)CC[C@@H]21
42: N#CC(CCc1ccccc1[N+](=O)[O-])(CCc1ccccc1[N+](=O)[O-])C(N)=O

Screen / compound no.	37	38	39	40	41	42
CAL PDZ FP-1	0	0	-1	x	x	0
PglD inh	x	0	-1	3	-3	4
Yeast UUG start	x	-5	-6	x	2	-12
ARNT-TACC3 inh	3	-7	45*	-8	-2	-1
Vif inh	59*	90*	11	x	x	26
CAL PDZ FP-2	-4	x	-2	x	x	53*

43: O=C(CN1CC(=O)Oc2ccccc21)OCC(=O)c1ccc(F)cc1
44: O=C1CN(CC(=O)N2CCCCC2)c2ccccc2O1
45: O=C(CN1CC(=O)Oc2ccccc21)OCC(=O)c1ccc(Br)cc1
46: O=C(CC(F)(F)F)N1C[C@@H]2[C@H](c3ccccc31)[C@H](CO)N2C(=O)CN1CCOCC1
47: COc1ccccc1S(=O)(=O)N[C@H]1CC[C@@H](CCn2cc(C3CC3)nn2)O[C@H]1CO
48: COc1cc(Br)c(C(=O)c2nccc3cc(OC)c(OC)cc23)cc1OC

Screen / compound no.	43	44	45	46	47	48
CAL PDZ FP-1	-4	-1	0	x	x	71*
PglD inh	x	-10	4	-4	0	2
Yeast UUG start	x	-20	-20	-4	5	-5
ARNT-TACC3 inh	63*	22	71*	-8	2	10
Vif inh	-6	-8	21	x	x	-9
CAL PDZ FP-2	-5	0	7	x	x	-3

Random excerpt: 5 compounds from above
43: O=C(CN1CC(=O)Oc2ccccc21)OCC(=O)c1ccc(F)cc1
45: O=C(CN1CC(=O)Oc2ccccc21)OCC(=O)c1ccc(Br)cc1
46: O=C(CC(F)(F)F)N1C[C@@H]2[C@H](c3ccccc31)[C@H](CO)N2C(=O)CN1CCOCC1
48: COc1cc(Br)c(C(=O)c2nccc3cc(OC)c(OC)cc23)cc1OC
44: O=C1CN(CC(=O)N2CCCCC2)c2ccccc2O1

Screen / compound no.	43	45	46	48	44
CAL PDZ FP-1	-4	0	x	71*	-1
PglD inh	x	4	-4	2	-10
Yeast UUG start	x	-20	-4	-5	-20
ARNT-TACC3 inh	63*	71*	-8	10	22
Vif inh	-6	21	x	-9	-8
CAL PDZ FP-2	-5	7	x	-3	0
